Reference: patent publication US7879861B2, “Combi-molecules having EGFR and DNA targeting properties” (priority 2005, dated 2011)

Target: EGFR (Homo sapiens, UniProt P00533)
Test: Reversibility of EGFR autophosphorylation inhibition in MDA-MB-468 cells (washout, 8 h)
Format: cell-based
Design: EGF-induced EGFR autophosphorylation in MDA-MB-468 cells; endogenous in cells; host or cells: MDA-MB-468 (ATCC)

mode of EGFR inhibition (reversible / irreversible): reversible inhibitor
EGF-dependent EGFR autophosphorylation immediately after drug exposure (2 μM, 2 h): completely suppressed
SMILES: Nc1ccc2ncnc(Nc3cccc(Br)c3)c2c1 [ZR01, reference compound]
